These results are taken from patent US20030134303A1, “Adenine nucleotide-binding protein-directed probes, and methods of their synthesis and use” (ActivX Biosciences, Inc,, priority 2001, published 2003).

By UniProt entry, the sequences of proteins in these tests, tags left out. Residues count along the entry.
UniProt P06213, 1023-1298 limits assumed: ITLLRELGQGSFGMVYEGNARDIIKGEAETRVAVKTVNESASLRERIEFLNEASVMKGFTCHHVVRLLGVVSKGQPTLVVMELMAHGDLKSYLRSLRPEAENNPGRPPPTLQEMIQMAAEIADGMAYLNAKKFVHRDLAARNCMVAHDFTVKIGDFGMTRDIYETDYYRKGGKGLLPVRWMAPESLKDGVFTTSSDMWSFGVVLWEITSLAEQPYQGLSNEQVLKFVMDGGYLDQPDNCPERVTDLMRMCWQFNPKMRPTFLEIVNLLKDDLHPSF

For the test, the target named is T1, GST-fusion protein of the insulin receptor kinase domain (GST-InsRK) (Homo sapiens, UniProt P06213).
T1 construct: GST-fusion protein of the insulin receptor kinase domain (GST-InsRK)
The test is classed as binding. The note with it: pretreatment with 25 or 250 μM for 30 minutes, then (5) 25 μM for 30 minutes.

fluorosulfonylbenzoic acid [FSBA]: the “inhibition of labeling of GST-InsRK by (5)” value is “inhibited”.
